“And” between values parts separate entries of the source, which are not always exact repeats. Identical values can stand only once. The list shows a part of the results, in another mix than the full data. The source made the active and inactive calls. Rule as the data show it: active = inhibition above about 37%; inactive = the rest.

A short description of this assay: compounds displacing fluorescent DNA intercalator, primary screen, artefact control for HCV NS3 helicase inhibitor project, biochemical, FID fluorescence (AID 1845).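 Also: 0% = vehicle and 100% = reference compound; higher means more ethidium bromide displaced from hairpin DNA.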 To be noted: DNA fluorescent intercalator displacement, at 7.9 µM, stronger effect = higher value.
For orientation: inhibition means the relative decrease from the control value, in per cent. Consider `Cc1ccc(NP(=O)(Oc2ccccc2)Oc2ccccc2)nc1`, for which the inhibition was inactive: -8.32%.
`O=[N+]([O-])c1cc([N+](=O)[O-])c(CCNc2ccccc2)c([N+](=O)[O-])c1`: the inhibition was inactive: 0.24%.
In the case of `CCc1nc2c(n1)c1c(non1O)c1c2no[n+]1[O-]`, the inhibition was inactive: 1.97%.
As for `CC(=O)N1C2C3N(C(C)=O)C1C1N(C(C)=O)C(C(N1C(C)=O)N3C(C)=O)N2C(C)=O`, the inhibition is inactive: 0%.
Under `O=[N+]([O-])c1cccc2n[nH]nc12` stands inactive: -2.22%; under `COc1ccc(C2=NCC(CBr)S2)cc1` (stereo not drawn), inactive: 5.39%; under `CC1CCN(C(=O)Oc2c(Cl)cc(Cl)c3cccnc23)CC1`, inactive: -28.9%.
With `CC(C)=N/N=C(\N)N[N+](=O)[O-]`, the inhibition was inactive: -3.6%.
Regarding `CN(C)C(=O)OCCc1n(C)cc[n+]1C`, the inhibition is inactive: -0.08%.
Regarding `CCN(/C(=N/P(=O)(N1CCOCC1)N1CCOCC1)N1CCOCC1)c1ccc(OC)cc1`, the inhibition is inactive: -32.9%.
On to `Nc1ccc([As](=O)(O)c2ccc(N)cc2)cc1`, for which the inhibition was inactive: 0.15%.
Regarding `C[N+]1=C2C=CC=CC=C2SC12C([N+](=O)[O-])=CC([N+](=O)[O-])=C[C-]2[N+](=O)[O-]` (stereo not drawn), the inhibition is inactive: -4.24%.
As for `O=C(Nc1cc([As](=O)(O)O)ccc1O)c1ccccc1`, the inhibition is inactive: 1.41%.
Regarding `O=C(O)CNc1ccc([As](=O)(O)O)cc1`, the inhibition is inactive: -0.18%.
As for `O=[N+]([O-])c1cccc(NC2=NCC(CBr)S2)c1` (stereo not drawn), the figure is inactive: 4.34%; as for `O=[N+]([O-])c1ncn(CCn2ncnc2[N+](=O)[O-])n1`, inactive: 12.7%; as for `CC(C)(C)C(=O)NC(Sc1ccncn1)C(Cl)(Cl)Cl` (stereo not drawn), inactive: -2.69%.
In the case of `CCOP(=O)(Nc1ccccc1)OCC`, the inhibition was inactive: -0.12% and inactive: -0.94%.
Turning to `Cc1cc(SC(NC(=O)c2ccc(F)cc2)C(Cl)(Cl)Cl)ncn1` (stereo not drawn), the inhibition was inactive: -0.1%.
Take `Cc1ccc(NP(=O)(Oc2ccccc2F)Oc2ccccc2F)nc1`: the inhibition is inactive: -3.95%.
Under `O=P(Nc1nc2ccc(Cl)cc2s1)(c1ccccc1)c1ccccc1` stands inactive: -25.4%; under `O=C(O)c1ccccc1[As](=O)(O)O`, inactive: -3.4%.
Take `CC(=O)Nc1ccc([As](=O)(O)O)cc1`: the inhibition is inactive: -0.3%.
As for `Nc1cccc2ccc([As](=O)(O)O)cc12`, the figure is inactive: -6.72%.
For the molecule `CCN(N=Nc1nonc1N)c1nonc1N`, the inhibition is inactive: 3.03%.
As to `O=[N+]([O-])c1cc([N+](=O)[O-])c(CCN2CCOCC2)c([N+](=O)[O-])c1`, the inhibition was inactive: 5.06%.
Take `Clc1ccc(Cl)c(NC2=NCC(CBr)S2)c1` (stereo not drawn): the inhibition is inactive: 3.19%.
As to `CN1CCCC(OC(=O)C(c2ccccc2)c2ccccc2)C1` (stereo not drawn), the inhibition is inactive: 6.6%.
Take `COc1ccccc1OP(=O)(Nc1ccc(C)cn1)Oc1ccccc1OC`: the inhibition is inactive: -3.85%.
As for `Cc1ccc(OP(=O)(Nc2nccs2)Oc2ccc(C)cc2)cc1`, the figure is inactive: -30.6%; as for `Cc1ccc(N/C(=N/P(=O)(N2CCOCC2)N2CCOCC2)N2CCOCC2)cc1`, inactive: 0.96%.
With `NC(=O)c1cc([N+](=O)[O-])cc([N+](=O)[O-])c1N`, the inhibition is inactive: -6.51%.
Under `Oc1ccccc1CNc1ccccn1` stands inactive: -0.39%; under `Cc1c2non([O-])c-2c(C)[n+](=O)[n+]1[O-]`, inactive: -2.65%.
For the molecule `O=C(NC(Sc1ccncn1)C(Cl)(Cl)Cl)c1ccccc1` (stereo not drawn), the inhibition is inactive: -6.8%.
As for `CC(C)CC(=O)NC(Sc1ccc(Cl)cc1)C(Cl)(Cl)Cl` (stereo not drawn), the figure is inactive: -5.67%; as for `Nc1cc(N)c2nonc2c1[N+](=O)[O-]`, inactive: 2.51%.
Under `CC(C)(C)C(=O)NC(Sc1ccccc1)C(Cl)(Cl)Cl` (stereo not drawn) stands inactive: -9.42%; under `O=P1(Nc2nc3ccc(Cl)cc3s2)COc2ccccc2O1` (stereo not drawn), inactive: -0.04%; under `CCOc1ccc(C2=NCC(CBr)S2)cc1` (stereo not drawn), inactive: 7.68%.
For the molecule `CC(=O)Nc1ccc([As](=O)(O)O)c(O)c1`, the inhibition is inactive: 2.01%.
Under `CC(=O)Nc1ccc(Oc2c([N+](=O)[O-])cc([N+](=O)[O-])cc2[N+](=O)[O-])cc1` stands inactive: -0.3%; under `CC(=O)c1ccc(N2CC2c2ccncc2)cc1` (stereo not drawn), inactive: -5.53%; under `c1ccc(-c2nn[nH]n2)c(-c2nn[nH]n2)c1`, inactive: 3.72%.
As for `Cc1ccc(NP(=O)(Oc2cccc(C)c2)Oc2cccc(C)c2)nc1`, the inhibition was inactive: 5.9%.
Regarding `CCOC(=O)NC(Sc1ccccc1)C(Cl)(Cl)Cl` (stereo not drawn), the inhibition is inactive: 1.54%.
As for `O=C(NC1CCS(=O)(=O)C1)NP(=S)(Oc1ccccc1)Oc1ccccc1` (stereo not drawn), the inhibition is inactive: 1.3%.
In the case of `CCNC(=S)/N=C(\N)N[N+](=O)[O-]`, the inhibition was inactive: -1.35%.
Take `Cc1ccccc1OP(=O)(Nc1ccccn1)Oc1ccccc1C`: the inhibition is inactive: -30.9%.
For `CN(C)C(=O)Oc1noc2ccccc12`, the inhibition was inactive: -5.5%.
On to `O=c1c2cc([N+](=O)[O-])ccc2[nH]c2c([N+](=O)[O-])cc([N+](=O)[O-])cc12`, for which the inhibition was inactive: 17.5%.
With `O=C(OC1CN2CCC1CC2)c1ccccc1` (stereo not drawn), the inhibition was inactive: 2.36%.
For the molecule `CCC(=O)N1C2C3N(C(=O)CC)C1C1N(C(=O)CC)C(C(N1C(=O)CC)N3C(=O)CC)N2C(=O)CC`, the inhibition is inactive: -3.15%.
For the molecule `COC(=O)c1cc2c(s1)N=C(c1ccccc1)N(C)P2(=O)N1CCOCC1` (stereo not drawn), the inhibition was inactive: -5.69%.
As for `CC(=O)NC(SC(=S)N(CC(C)C)CC(C)C)C(Cl)(Cl)Cl` (stereo not drawn), the figure is inactive: -7.27%; as for `Cc1ccc(OP(=O)(Nc2ccccn2)Oc2ccc(C)cc2)cc1`, inactive: -28.3%; as for `O=P(Nc1nc2ccccc2s1)(c1ccccc1)c1ccccc1`, inactive: -16.8%.
With `CN(C)C1(CNC(=O)c2ccc(Cl)c(S(N)(=O)=O)c2)CCCCC1`, the inhibition is inactive: -4.52%.
Under `O=P(Nc1ccccn1)(c1ccc(Br)cc1)c1ccc(Br)cc1` stands inactive: -11.6%; under `O=C(OC1CN2CCC1CC2)c1cccc(Cl)c1` (stereo not drawn), inactive: 6.78%.
As for `Nc1ccc([As](=O)(O)c2ccc([N+](=O)[O-])cc2)cc1`, the figure is inactive: -3.93%; as for `C(Cc1nn[nH]n1)Cc1nn[nH]n1`, inactive: 3.15%.
Regarding `O=[As](O)(c1ccccc1)c1ccc(O)cc1`, the inhibition was inactive: -1.24%.
`CC(=O)NC(SC(=S)N(C)C)C(Cl)(Cl)Cl` (stereo not drawn): the inhibition is inactive: 0.94%.
In the case of `O=[N+]([O-])c1ncn(CCn2cnc([N+](=O)[O-])n2)n1`, the inhibition is inactive: -0.72%.
Under `O=[N+]([O-])c1ccc(O)c(/C=N/Nc2ccc([N+](=O)[O-])cc2[N+](=O)[O-])c1` stands inactive: 6.38%; under `c1nnnn1CCn1cnnn1`, inactive: 2.42%.
Consider `O=P(Nc1nccs1)(c1ccccc1)c1ccccc1`, for which the inhibition is inactive: -10.5%.
As for `CC(C)C(=O)NC(Sc1ccccc1)C(Cl)(Cl)Cl` (stereo not drawn), the inhibition is inactive: -4.13%.
Under `Clc1n[nH]nc1-c1nn[nH][15n]1` stands inactive: 2.85%.
Consider `CC(C)(C)C(=O)NC(Sc1ncccn1)C(Cl)(Cl)Cl` (stereo not drawn), for which the inhibition was inactive: -2.15%.
For `CCC1=CC2Cc3nc4ccc(Cl)cc4c(N)c3C(C1)C2` (stereo not drawn), the inhibition was inactive: 6.59%.
As for `O=P1(Nc2ccccn2)COc2ccccc2OC1`, the inhibition is inactive: -2.43%.
As for `CCOP(=O)(NC(=NC(C)c1ccccc1)NC(C)c1ccccc1)OCC` (stereo not drawn), the inhibition was inactive: -52.4%.
Consider `CCOP(=O)(Nc1ccc(C)cn1)OCC`, for which the inhibition is inactive: -6.61%.
As for `CN(C(=O)Cc1ccc(Cl)c(Cl)c1)[C@@H]1CCCC[C@H]1N1CCCC1`, the figure is inactive: 10.3%.
Turning to `CC(C)/C=N\N=C(\N)N[N+](=O)[O-]`, the inhibition was inactive: -1.62%.
Consider `O=[As](O)(c1ccccc1Br)c1ccccc1Br`, for which the inhibition was inactive: -0.69%.
Under `CC1(CBr)Cn2c(nc3ccccc3c2=O)S1` (stereo not drawn) stands inactive: 1.15%; under `CN(C)C1(CNC(=O)c2ccc(S(C)(=O)=O)cc2)CCCCC1`, inactive: 5.3%; under `O=C(/C=C/c1ccccc1)OC1CN2CCC1CC2` (stereo not drawn), inactive: 7.18%.
Consider `Cc1nn(-c2ccccc2)c2c1P(=O)(N1CCOCC1)N(C)C(c1ccccc1)=N2` (stereo not drawn), for which the inhibition was inactive: -14.1%.
For the molecule `Cc1ccc(C(=O)OC2CN3CCC2CC3)cc1` (stereo not drawn), the inhibition is inactive: -4.09%.
Turning to `CC1CCC(C(C)C)C(OP(=O)(Nc2ccccn2)c2ccccc2)C1` (stereo not drawn), the inhibition was inactive: -34.9%.
Turning to `Nc1cccc([As](=O)(O)c2ccccc2)c1`, the inhibition is inactive: -0.71%.
Consider `O=P1(Nc2ccc(Br)cn2)COc2ccccc2OC1`, for which the inhibition is inactive: -10.3%.
For `Cc1ccc(OCC(=O)OC2CN3CCC2CC3)cc1` (stereo not drawn), the inhibition was inactive: 1.4%.
As for `O=[As](O)(c1cccs1)c1cccs1`, the figure is inactive: -0.47%.
Under `O=P1(Nc2ncccn2)COc2ccccc2OC1` stands inactive: 5.46%; under `O=C(O)COc1ccc([As](=O)(O)O)cc1[N+](=O)[O-]`, inactive: -0.36%.
As for `Nc1ccccc1[As](=O)(O)c1ccccc1`, the figure is inactive: -2.5%.
In the case of `CCOP1(=S)c2c(C)nn(CCC#N)c2N=C(c2ccccc2F)N1C` (stereo not drawn), the inhibition is inactive: -13.5%.
As for `O=P(Nc1nccs1)(c1ccccc1)c1nc2ccccc2s1` (stereo not drawn), the inhibition is inactive: -3.17%.
`O=P(Nc1nccs1)(Oc1ccccc1)Oc1ccccc1`: the inhibition is inactive: -12.2%.
Turning to `CS(=O)(=O)c1cc([N+](=O)[O-])c2no[n+]([O-])c2c1`, the inhibition was inactive: 1.89%.
In the case of `CCOP1(=S)c2c(C)nn(CCC#N)c2N=C(c2ccc(F)cc2)N1C` (stereo not drawn), the inhibition is inactive: -16.2%.
For the molecule `O=[N+]([O-])c1ccc2c(c1)nnn2O`, the inhibition was inactive: 1.38%.
Regarding `O=[As](O)(c1cccc(O)c1)c1cccc(O)c1`, the inhibition is inactive: 1.03%.
As for `Cc1cccc(OCC(=O)OC2CN3CCC2CC3)c1` (stereo not drawn), the figure is inactive: 1.68%.
As to `O=C(OC1CN2CCC1CC2)c1ccc(Cl)cc1` (stereo not drawn), the inhibition was inactive: 3.79%.
`COc1cc(C(=O)NCC2(N3CCOCC3)CCCCC2)cc(Cl)c1OC(C)C`: the inhibition was inactive: 6.14%.
In the case of `O=[As](O)(O)c1cccnc1`, the inhibition was inactive: 0.65%.
Turning to `CS(=O)(=O)c1ccc(Cl)c(NC(=O)COC(=O)C(O)(c2ccccc2)c2ccccc2)c1`, the inhibition is inactive: -40.7%.

(Values after PubChem BioAssay AID1845 (The Scripps Research Institute Molecular Screening Center, 2009).)
